Values joined by “and” are separate entries in the source; they are usually repeats but may differ in a detail not shown here. Equal entries are not always repeated.
How the values were obtained:
Type in all cases: cell-based
hTRPM2 E1409A mutant = hTRPM2 E1409A mutant (Homo sapiens, UniProt O94759, E1409A); assay: Whole-cell ADPR-induced currents, HEK293, E1409A mutant; settings: read-out: EC50 ± SEM
hTRPM2 H1346A mutant = hTRPM2 H1346A mutant (Homo sapiens, UniProt O94759, H1346A); assay: Whole-cell ADPR-induced currents, HEK293, H1346A mutant
hTRPM2 T1347A mutant = hTRPM2 T1347A mutant (Homo sapiens, UniProt O94759, T1347A); assay: Whole-cell ADPR-induced currents, HEK293, T1347A mutant
hTRPM2 D1431N mutant = hTRPM2 D1431N mutant (Homo sapiens, UniProt O94759, D1431N); assay: Whole-cell ADPR-induced currents, HEK293, D1431N mutant
hTRPM2 H1346W mutant = hTRPM2 H1346W mutant (Homo sapiens, UniProt O94759, H1346W); assay: Whole-cell ADPR-induced currents, HEK293, H1346W mutant; settings: read-out: EC50 ± SEM
hTRPM2 T1347F mutant = hTRPM2 T1347F mutant (Homo sapiens, UniProt O94759, T1347F); assay: Whole-cell ADPR-induced currents, HEK293, T1347F mutant; settings: read-out: EC50 ± SEM
hTRPM2 R1433K mutant = hTRPM2 R1433K mutant (Homo sapiens, UniProt O94759, R1433K); assay: Whole-cell ADPR-induced currents, HEK293, R1433K mutant
hTRPM2 L1379S mutant = hTRPM2 L1379S mutant (Homo sapiens, UniProt O94759, L1379S); assay: Whole-cell ADPR-induced currents, HEK293, L1379S mutant; settings: read-out: EC50 ± SEM
hTRPM2 T1347Y mutant = hTRPM2 T1347Y mutant (Homo sapiens, UniProt O94759, T1347Y); assay: Whole-cell ADPR-induced currents, HEK293, T1347Y mutant; settings: read-out: EC50 ± SEM
hTRPM2 Y1349A mutant = hTRPM2 Y1349A mutant (Homo sapiens, UniProt O94759, Y1349A); assay: Whole-cell ADPR-induced currents, HEK293, Y1349A mutant
hTRPM2 S1391A mutant = hTRPM2 S1391A mutant (Homo sapiens, UniProt O94759, S1391A); assay: Whole-cell ADPR-induced currents, HEK293, S1391A mutant; settings: read-out: EC50 ± SEM
hTRPM2 R1433G mutant = hTRPM2 R1433G mutant (Homo sapiens, UniProt O94759, R1433G); assay: Whole-cell ADPR-induced currents, HEK293, R1433G mutant
hTRPM2 H1488A mutant = hTRPM2 H1488A mutant (Homo sapiens, UniProt O94759, H1488A); assay: Whole-cell ADPR-induced currents, HEK293, H1488A mutant
hTRPM2 L1379A mutant = hTRPM2 L1379A mutant (Homo sapiens, UniProt O94759, L1379A); assay: Whole-cell ADPR-induced currents, HEK293, L1379A mutant
hTRPM2 L1484V mutant = hTRPM2 L1484V mutant (Homo sapiens, UniProt O94759, L1484V); assay: Whole-cell ADPR-induced currents, HEK293, L1484V mutant
hTRPM2 WT channel = hTRPM2 WT channel (Homo sapiens, UniProt O94759); assay: Whole-cell recording of ADPR-induced currents, HEK293 cells expressing WT hTRPM2; settings: read-out: EC50 ± SEM, intracellular ADPR
hTRPM2 D1431A mutant = hTRPM2 D1431A mutant (Homo sapiens, UniProt O94759, D1431A); assay: Whole-cell ADPR-induced currents, HEK293, D1431A mutant
hTRPM2 R1433A mutant = hTRPM2 R1433A mutant (Homo sapiens, UniProt O94759, R1433A); assay: Whole-cell ADPR-induced currents, HEK293, R1433A mutant
hTRPM2 H1488F mutant = hTRPM2 H1488F mutant (Homo sapiens, UniProt O94759, H1488F); assay: Whole-cell ADPR-induced currents, HEK293, H1488F mutant
hTRPM2 Y1349I mutant = hTRPM2 Y1349I mutant (Homo sapiens, UniProt O94759, Y1349I); assay: Whole-cell ADPR-induced currents, HEK293, Y1349I mutant
hTRPM2 E1409Q mutant = hTRPM2 E1409Q mutant (Homo sapiens, UniProt O94759, E1409Q); assay: Whole-cell ADPR-induced currents, HEK293, E1409Q mutant; settings: read-out: EC50 ± SEM

Amino acid sequences for entries named in this document (tags omitted).
UniProt O94759, whole entry E1409A: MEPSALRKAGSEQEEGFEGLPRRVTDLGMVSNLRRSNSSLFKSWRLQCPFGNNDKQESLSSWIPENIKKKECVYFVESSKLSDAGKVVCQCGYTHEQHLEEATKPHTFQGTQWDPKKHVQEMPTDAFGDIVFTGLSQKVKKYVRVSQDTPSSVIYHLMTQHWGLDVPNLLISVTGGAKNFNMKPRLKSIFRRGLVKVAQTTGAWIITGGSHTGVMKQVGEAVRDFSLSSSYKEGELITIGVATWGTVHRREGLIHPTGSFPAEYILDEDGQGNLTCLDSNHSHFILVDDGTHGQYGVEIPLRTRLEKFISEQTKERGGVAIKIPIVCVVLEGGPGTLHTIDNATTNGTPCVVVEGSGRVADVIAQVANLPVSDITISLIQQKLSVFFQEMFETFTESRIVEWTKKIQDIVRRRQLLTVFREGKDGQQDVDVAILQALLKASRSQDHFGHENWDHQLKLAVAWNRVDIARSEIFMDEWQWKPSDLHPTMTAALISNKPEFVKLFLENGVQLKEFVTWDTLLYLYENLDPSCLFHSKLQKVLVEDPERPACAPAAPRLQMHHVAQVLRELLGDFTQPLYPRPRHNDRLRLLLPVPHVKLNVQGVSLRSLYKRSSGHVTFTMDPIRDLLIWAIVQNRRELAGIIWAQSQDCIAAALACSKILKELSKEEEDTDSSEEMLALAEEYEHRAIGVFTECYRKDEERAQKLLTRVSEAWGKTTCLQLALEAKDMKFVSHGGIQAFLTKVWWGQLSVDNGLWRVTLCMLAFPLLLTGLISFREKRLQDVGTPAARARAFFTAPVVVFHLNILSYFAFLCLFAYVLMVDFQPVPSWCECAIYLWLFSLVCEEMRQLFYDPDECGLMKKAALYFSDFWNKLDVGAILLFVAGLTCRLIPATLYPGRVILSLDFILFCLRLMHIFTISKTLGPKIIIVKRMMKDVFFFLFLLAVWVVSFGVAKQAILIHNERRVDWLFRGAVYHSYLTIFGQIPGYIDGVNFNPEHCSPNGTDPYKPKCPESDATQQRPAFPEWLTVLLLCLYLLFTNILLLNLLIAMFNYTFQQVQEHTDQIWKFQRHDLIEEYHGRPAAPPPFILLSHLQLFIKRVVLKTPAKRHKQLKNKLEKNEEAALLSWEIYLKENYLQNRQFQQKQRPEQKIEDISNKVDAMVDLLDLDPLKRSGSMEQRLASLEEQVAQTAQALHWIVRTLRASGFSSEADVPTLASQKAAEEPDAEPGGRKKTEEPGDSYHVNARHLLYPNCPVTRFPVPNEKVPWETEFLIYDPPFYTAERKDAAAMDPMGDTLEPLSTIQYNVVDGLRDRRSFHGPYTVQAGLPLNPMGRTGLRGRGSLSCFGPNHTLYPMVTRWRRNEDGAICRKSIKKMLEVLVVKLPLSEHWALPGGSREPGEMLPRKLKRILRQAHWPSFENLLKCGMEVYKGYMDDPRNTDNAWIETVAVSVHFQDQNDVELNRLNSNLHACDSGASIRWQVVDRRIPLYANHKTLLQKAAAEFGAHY
UniProt O94759, whole entry H1346A: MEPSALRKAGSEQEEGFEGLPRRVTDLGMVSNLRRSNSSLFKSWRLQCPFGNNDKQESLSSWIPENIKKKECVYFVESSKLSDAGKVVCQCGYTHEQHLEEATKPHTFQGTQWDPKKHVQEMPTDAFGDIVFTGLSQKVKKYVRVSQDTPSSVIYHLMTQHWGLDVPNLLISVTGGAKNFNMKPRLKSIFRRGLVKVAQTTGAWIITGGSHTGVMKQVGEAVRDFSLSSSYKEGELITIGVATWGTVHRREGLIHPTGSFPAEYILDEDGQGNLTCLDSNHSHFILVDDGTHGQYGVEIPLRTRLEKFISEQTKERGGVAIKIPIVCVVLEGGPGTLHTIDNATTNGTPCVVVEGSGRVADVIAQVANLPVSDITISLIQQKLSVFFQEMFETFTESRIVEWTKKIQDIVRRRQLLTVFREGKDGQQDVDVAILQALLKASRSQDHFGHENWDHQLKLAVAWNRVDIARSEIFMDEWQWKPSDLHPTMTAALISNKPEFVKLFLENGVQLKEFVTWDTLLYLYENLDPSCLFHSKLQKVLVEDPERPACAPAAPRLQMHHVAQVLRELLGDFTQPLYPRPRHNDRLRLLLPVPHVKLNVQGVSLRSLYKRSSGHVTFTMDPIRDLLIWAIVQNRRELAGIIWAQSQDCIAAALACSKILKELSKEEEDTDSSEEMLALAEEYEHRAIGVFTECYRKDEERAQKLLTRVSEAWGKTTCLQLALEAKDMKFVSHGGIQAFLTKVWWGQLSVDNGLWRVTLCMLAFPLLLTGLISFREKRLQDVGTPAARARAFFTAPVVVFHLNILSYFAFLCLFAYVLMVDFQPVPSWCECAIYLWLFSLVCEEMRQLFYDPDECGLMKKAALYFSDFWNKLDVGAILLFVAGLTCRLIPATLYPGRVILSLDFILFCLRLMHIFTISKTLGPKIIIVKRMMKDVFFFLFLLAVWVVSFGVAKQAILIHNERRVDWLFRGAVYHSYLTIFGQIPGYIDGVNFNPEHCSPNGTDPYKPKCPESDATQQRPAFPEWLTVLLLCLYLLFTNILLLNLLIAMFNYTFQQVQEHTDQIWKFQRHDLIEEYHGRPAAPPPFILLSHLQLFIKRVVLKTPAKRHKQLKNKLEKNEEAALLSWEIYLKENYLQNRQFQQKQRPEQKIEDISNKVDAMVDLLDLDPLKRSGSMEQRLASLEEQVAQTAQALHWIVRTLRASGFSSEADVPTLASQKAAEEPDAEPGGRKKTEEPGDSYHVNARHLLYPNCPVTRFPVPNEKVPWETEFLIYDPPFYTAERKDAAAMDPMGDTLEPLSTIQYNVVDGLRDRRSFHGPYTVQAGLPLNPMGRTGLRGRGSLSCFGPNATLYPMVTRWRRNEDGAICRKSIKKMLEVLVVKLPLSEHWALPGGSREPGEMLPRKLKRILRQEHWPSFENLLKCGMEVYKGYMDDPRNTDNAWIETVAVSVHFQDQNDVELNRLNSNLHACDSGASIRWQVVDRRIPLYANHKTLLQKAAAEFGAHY
UniProt O94759, whole entry T1347A: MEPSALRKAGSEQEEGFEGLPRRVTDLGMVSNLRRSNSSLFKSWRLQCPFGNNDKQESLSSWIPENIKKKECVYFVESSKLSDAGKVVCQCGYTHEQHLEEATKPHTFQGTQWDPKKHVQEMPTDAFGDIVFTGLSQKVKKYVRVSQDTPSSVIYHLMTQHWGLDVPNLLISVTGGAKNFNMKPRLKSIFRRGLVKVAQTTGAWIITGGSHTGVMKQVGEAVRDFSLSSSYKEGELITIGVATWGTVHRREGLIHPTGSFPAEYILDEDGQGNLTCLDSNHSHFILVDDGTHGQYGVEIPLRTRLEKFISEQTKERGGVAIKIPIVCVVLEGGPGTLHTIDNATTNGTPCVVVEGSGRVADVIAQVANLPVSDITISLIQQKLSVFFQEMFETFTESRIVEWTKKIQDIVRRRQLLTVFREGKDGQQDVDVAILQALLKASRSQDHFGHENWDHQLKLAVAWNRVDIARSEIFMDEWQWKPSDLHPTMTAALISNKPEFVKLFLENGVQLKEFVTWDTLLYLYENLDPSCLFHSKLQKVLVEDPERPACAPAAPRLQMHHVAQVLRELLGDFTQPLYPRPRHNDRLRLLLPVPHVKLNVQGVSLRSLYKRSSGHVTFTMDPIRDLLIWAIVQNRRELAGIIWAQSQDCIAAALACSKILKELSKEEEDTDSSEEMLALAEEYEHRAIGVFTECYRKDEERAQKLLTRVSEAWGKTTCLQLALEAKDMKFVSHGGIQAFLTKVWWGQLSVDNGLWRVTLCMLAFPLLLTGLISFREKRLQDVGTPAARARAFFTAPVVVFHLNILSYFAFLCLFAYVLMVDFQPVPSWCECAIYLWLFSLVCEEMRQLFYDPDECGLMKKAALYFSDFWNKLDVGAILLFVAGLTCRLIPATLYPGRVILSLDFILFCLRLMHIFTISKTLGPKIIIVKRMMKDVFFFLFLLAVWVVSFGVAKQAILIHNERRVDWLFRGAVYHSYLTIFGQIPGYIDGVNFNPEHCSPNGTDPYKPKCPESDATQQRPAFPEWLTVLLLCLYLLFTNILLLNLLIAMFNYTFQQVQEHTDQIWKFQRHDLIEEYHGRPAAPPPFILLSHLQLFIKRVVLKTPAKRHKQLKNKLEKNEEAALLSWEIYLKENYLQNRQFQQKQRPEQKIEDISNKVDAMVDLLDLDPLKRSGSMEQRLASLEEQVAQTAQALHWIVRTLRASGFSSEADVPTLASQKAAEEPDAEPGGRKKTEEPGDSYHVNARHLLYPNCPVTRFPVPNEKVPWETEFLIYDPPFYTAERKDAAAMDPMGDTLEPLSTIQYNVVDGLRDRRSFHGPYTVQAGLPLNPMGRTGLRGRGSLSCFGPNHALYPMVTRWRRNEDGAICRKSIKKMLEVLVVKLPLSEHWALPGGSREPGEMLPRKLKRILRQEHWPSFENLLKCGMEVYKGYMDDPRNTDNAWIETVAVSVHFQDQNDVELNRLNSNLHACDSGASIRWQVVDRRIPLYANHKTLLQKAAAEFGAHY
UniProt O94759, whole entry D1431N: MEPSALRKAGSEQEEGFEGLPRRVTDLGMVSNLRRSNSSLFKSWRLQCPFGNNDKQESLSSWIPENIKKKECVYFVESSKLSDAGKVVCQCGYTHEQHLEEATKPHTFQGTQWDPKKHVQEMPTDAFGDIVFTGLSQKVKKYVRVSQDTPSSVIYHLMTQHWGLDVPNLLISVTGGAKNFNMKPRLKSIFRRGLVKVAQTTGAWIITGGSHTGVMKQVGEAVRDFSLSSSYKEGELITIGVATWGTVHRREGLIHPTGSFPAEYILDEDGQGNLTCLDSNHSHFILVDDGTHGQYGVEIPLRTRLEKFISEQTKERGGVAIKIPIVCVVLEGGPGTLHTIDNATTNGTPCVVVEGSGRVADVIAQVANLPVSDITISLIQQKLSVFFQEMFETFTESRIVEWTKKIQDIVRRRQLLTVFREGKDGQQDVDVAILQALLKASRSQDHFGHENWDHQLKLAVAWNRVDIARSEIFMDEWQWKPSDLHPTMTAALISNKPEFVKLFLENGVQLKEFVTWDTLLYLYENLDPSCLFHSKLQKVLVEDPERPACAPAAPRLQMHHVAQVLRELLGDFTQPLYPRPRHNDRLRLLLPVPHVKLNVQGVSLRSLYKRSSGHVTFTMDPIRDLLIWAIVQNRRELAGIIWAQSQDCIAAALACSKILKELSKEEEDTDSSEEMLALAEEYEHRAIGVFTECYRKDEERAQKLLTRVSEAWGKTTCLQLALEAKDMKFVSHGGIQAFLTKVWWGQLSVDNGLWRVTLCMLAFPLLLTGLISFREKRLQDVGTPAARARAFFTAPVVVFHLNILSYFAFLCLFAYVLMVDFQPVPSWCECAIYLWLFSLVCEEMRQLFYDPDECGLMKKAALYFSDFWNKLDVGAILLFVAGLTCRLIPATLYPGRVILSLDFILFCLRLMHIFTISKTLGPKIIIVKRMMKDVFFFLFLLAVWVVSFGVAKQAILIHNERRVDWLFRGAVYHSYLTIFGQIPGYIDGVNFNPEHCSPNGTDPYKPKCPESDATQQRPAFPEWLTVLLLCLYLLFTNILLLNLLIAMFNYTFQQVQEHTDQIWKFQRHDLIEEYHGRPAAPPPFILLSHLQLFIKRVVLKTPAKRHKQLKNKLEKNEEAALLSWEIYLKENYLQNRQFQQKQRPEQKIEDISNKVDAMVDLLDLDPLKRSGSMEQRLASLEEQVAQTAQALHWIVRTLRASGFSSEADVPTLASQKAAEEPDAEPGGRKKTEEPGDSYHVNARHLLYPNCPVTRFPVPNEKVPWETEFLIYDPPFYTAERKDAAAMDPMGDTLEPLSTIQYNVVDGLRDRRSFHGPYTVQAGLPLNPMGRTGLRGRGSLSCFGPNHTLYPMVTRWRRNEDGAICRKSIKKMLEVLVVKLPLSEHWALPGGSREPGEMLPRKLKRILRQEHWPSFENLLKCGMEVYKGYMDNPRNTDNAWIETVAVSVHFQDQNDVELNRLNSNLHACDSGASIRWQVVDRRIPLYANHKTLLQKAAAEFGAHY

EC50 (hTRPM2 E1409A mutant): 506 ± 109 µM
EC50 (hTRPM2 H1346A mutant): > 1000 µM
EC50 (hTRPM2 T1347A mutant): > 1000 µM
EC50 (hTRPM2 D1431N mutant): > 100000 µM
EC50 (hTRPM2 H1346W mutant): 112 ± 6.4 µM
EC50 (hTRPM2 T1347F mutant): 92.9 ± 11.2 µM
EC50 (hTRPM2 R1433K mutant): > 1000 µM
EC50 (hTRPM2 L1379S mutant): 10.8 ± 3.5 µM
EC50 (hTRPM2 T1347Y mutant): 115 ± 13.4 µM
EC50 (hTRPM2 Y1349A mutant): > 1000 µM
EC50 (hTRPM2 S1391A mutant): 3.5 ± 0.2 µM
EC50 (hTRPM2 R1433G mutant): > 10000 µM
EC50 (hTRPM2 H1488A mutant): > 1000 µM
EC50 (hTRPM2 L1379A mutant): 3 to 100 µM
EC50 (hTRPM2 L1484V mutant): 3 to 100 µM
EC50 (hTRPM2 WT channel): ~40 µM and 40.5 µM
EC50 (hTRPM2 D1431A mutant): > 1000 µM
EC50 (hTRPM2 R1433A mutant): > 1000 µM
EC50 (hTRPM2 H1488F mutant): > 10000 µM
EC50 (hTRPM2 Y1349I mutant): > 10000 µM
EC50 (hTRPM2 E1409Q mutant): 5.4 ± 1.6 µM
Substance: adenosine diphosphate ribose [ADPR]
